# Compound activity deposited in PubChem BioAssay by National Center for Advancing Translational Sciences (NCATS).
# Shown are actives, neighbours in structure and some others; about 13% of the full set was active somewhere.
# LMNA splice mod: LMNA splicing modulation. HeLa LMNA splicing GFP/RFP minigene ratio, 48 h. Potency, µM (series often up to 46.1 µM), inactives show at the highest dose ratio change, negative = inhibition, usual class: inhibitors. hit rate 0.01% among 200,000; active = well fitted inhibition curve with a large enough effect in the signal ratio, with a control signal flat, not every such curve was filed as active; inconclusive = small, poorly fitted or top-dose-only effect, or effect the other way, or a change in a side signal; the % refers to the signal ratio; note: potency is the fitted concentration of half-maximal effect; % is set by controls: 0 for no effect and ±100 for the full control effect
#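 S3 HeLa cells stably expressing lamin A-EGFP splicing minigene plus DsRed2, 600 cells/well, 48 h compound exposure at 37C. Laser-scanning cytometry; analysed as GFP (500-530 nm)/RFP (575-640 nm) total intensity ratio; 0.5% DMSO vehicle.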
# G9a block: inhibitors of human histone lysine methyltransferase G9a; hit rate 8.8% among 350,000; Q96KQ7; Potency, µM (highest dose often 102 µM), for inactives: at the top dose activity, negative = inhibition, usual class: inhibitors; G9a H3K9 monomethylation, AlphaScreen, 2 h; note: potency is the fitted concentration of half-maximal effect; % is set by controls: 0 for no effect and ±100 for the full control effect; nearly all actives have a fitted effect of over 75% in size
#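 G9a (20 nM) was preincubated 15 min with compound, then reacted 2 h at room temperature with 500 nM biotin-H3K9 peptide and 20 µM SAM. Monomethyl-H3K9 detected by AlphaScreen using anti-H3K9me1 antibody.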
# miR-21 reporter: raises the signal of a miR-21 reporter | HeLa miR-21 FLuc reporter, luciferase, 48 h | Potency, µM (doses to about 38.3 µM), for the others: at the highest dose reporter change, positive = more light | 340,000 tested, under 10 active | AID 2288; active = well fitted rising curve with a large enough effect; inconclusive = small, poorly fitted or top-dose-only effect; inactive = no such curve, though single readings can be large or run the other way;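 also: % of control where 0% means no effect; miR-21 action dims this reporter so a rising signal means less miR-21 action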
#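 Using DMEM plus 10% FBS, HeLa miR-21-FLuc cells are incubated with test compounds (final up to about 40uM) for 48 hours; firefly luciferase signal is then imaged following reagent-mediated lysis.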
# Sfp PPTase inh: qHTS Assay for Inhibitors of Bacillus subtilis Sfp phosphopantetheinyl transferase (PPTase). 4'-phosphopantetheinyl transferase ffp (Bacillus subtilis), Q9F4F7. Biochemical Sfp PPTase activity, qHTS. Potency, µM, inactives show max response, negative = inhibition, usual class: inhibitors. hit rate 3.5% among 310,000; active means well fitted inhibition curve with a large enough effect; inconclusive means small, poorly fitted or top-dose-only effect, or another doubt; inactive means no such curve, though single readings can be large or run the other way;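 further: the enzyme is Sfp with the accession as filed and its product quenches rhodamine fluorescence; potency means the concentration at half of the fitted maximal effect; 0% = enzyme reaction without inhibitor and -100% = no enzyme wells; top concentration of the series not given in the record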
#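 Fluorescence-quenching assay: 15 nM Sfp-PPTase preincubated 15 min at room temperature with compound, then 5 uM rhodamine-CoA and 12.5 uM BHQ-2-labelled YbbR peptide added. Fluorescence (ex 525/em 598 nm) read at start and after 30 min; difference gives rate.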
# ALDH1A1 inh: blocks purified human ALDH1A1 activity; P00352; Purified ALDH1A1, NADH fluorescence, propionaldehyde substrate; Potency, µM (highest dose often 75.3 µM), without a hit: at the highest dose activity, negative = inhibition, hits mostly inhibitors; hit rate 7.3% among 220,000; active = well fitted inhibition curve with a large enough effect, not every such curve was filed as active; inconclusive = small, poorly fitted or top-dose-only effect, or another doubt; inactive = no such curve, though single readings can be large or run the other way;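 note: potency is the fitted concentration of half-maximal effect; plate controls were no enzyme wells and a reference inhibitor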
# KDM4E inh: blocks human JMJD2E demethylase activity; B2RXH2; JMJD2E catalytic domain, FDH-coupled NADH fluorescence (FDH is formaldehyde dehydrogenase); Potency, µM (series often up to 57.1 µM), inactives show at the highest dose activity change, negative = inhibition, hits mostly inhibitors; hit rate 1.6% among 230,000; active = well fitted inhibition curve with a large enough effect, not every such curve was filed as active; inconclusive = small, poorly fitted or top-dose-only effect, or another doubt; inactive = no such curve, though single readings can be large or run the other way;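 note: potency is the fitted concentration of half-maximal effect; 0% = wells with enzyme and -100% = buffer wells without enzyme; nearly all actives have a fitted effect of over 50% in size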
# Starred values were filed as active, the others as inactive; u = inconclusive; x = not tested or not shown; [ ] = remark or other dose. Unless noted, calls come from the whole dose curve; as a rule, active = well fitted curve in the direction sought with a large enough effect; inconclusive = small, poorly fitted or top-dose-only effect, or another doubt; inactive = no such curve, though single readings can be large; an effect the other way counts as inactive or inconclusive.
# Short keys: A = LMNA splice mod; B = G9a block; C = miR-21 reporter; D = Sfp PPTase inh; E = ALDH1A1 inh; F = KDM4E inh
mol: O=C(Nc1nnc(SCCN2CCOCC2)s1)C1CC(=O)N(c2ccccc2)C1 (stereo unspecified)
  A = x	B = 45µM*	C = -6%	D = 7%	E = x	F = x
mol: O=C(CSc1nc2ccc(NC(=O)C3CCCCC3)cc2s1)NCC1CCCO1 (stereo unspecified)
  A = u	B = 45µM*	C = -42%	D = 0%	E = -3%	F = -6%
mol: O=C(CC1(O)C(=O)Nc2ccccc21)c1ccc(-n2cccc2)cc1 (stereo unspecified)
  A = 5%	B = u	C = -8%	D = -2%	E = u	F = 9%
mol: COC(=O)CN1C(=O)C(O)(CC(=O)c2ccc(C)cc2)c2cc(Br)ccc21 (stereo unspecified)
  A = -6%	B = 12%[59 µM]	C = -1%	D = -10%	E = 20µM*	F = -7%
mol: COC(=O)CN1C(=O)C(O)(CC(=O)c2ccc(F)cc2)c2ccccc21 (stereo unspecified)
  A = x	B = -9%[59 µM]	C = 1%	D = x	E = x	F = x
mol: CN1C(=O)C(O)(CC(=O)c2ccc(F)cc2)c2cc(Br)ccc21 (stereo unspecified)
  A = -1%	B = 19%[59 µM]	C = 17%	D = -7%	E = 16%	F = -7%
mol: COC(=O)CN1C(=O)C(O)(CC(=O)c2ccc(Br)cc2)c2ccccc21 (stereo unspecified)
  A = 0%	B = -4%	C = -7%	D = 13%	E = 0.35µM*	F = -1%
mol: C=CCN1C(=O)C(O)(CC(=O)c2ccc(-n3cccc3)cc2)c2ccccc21 (stereo unspecified)
  A = -11%	B = u	C = -8%	D = -16%	E = 0.5µM*	F = -27%
mol: Cc1ccc(CNC(=O)C2CCC(=O)N(Cc3ccccc3F)C2)s1 (stereo unspecified)
  A = x	B = 21%[59 µM]	C = -17%	D = 8%	E = x	F = x
mol: CCN(CC)S(=O)(=O)c1ccc(N2CCCC2)c(NC(=O)c2ccc(N3CCCC3=O)cc2)c1
  A = x	B = 35µM*	C = x	D = x	E = x	F = x
mol: CCN(CC)S(=O)(=O)c1ccc(OC)c(NC(=O)c2ccc(N3CCCC3=O)cc2)c1
  A = x	B = -1%[59 µM]	C = x	D = x	E = x	F = x
mol: CCN(CC)S(=O)(=O)c1ccc(N2CCOCC2)c(NC(=O)c2ccc(N3CCCC3=O)cc2)c1
  A = x	B = 50µM*	C = x	D = x	E = x	F = x
mol: CCN(CC)S(=O)(=O)c1ccc(O)c(NC(=O)c2ccc(N3CCOCC3)c([N+](=O)[O-])c2)c1
  A = u	B = 7.1µM*	C = -20%	D = u	E = 0.71µM*	F = 5%
mol: CCN(CC)S(=O)(=O)c1ccc(N2CCOCC2)c(NC(=O)c2ccccc2)c1
  A = u	B = 21%[59 µM]	C = 0%	D = -4%	E = u	F = -15%
mol: Cc1nnsc1C(=O)NC1CCCc2c1cnn2-c1ccc(C(C)(C)C)cc1 (stereo unspecified)
  A = x	B = 24%	C = 23%	D = 4%	E = x	F = x
mol: Cc1nn(Cc2ccc(C(=O)N3c4ccc(F)cc4CCC3C)o2)c(C)c1Br (stereo unspecified)
  A = u	B = 50µM*	C = 17%	D = -21%	E = 1%	F = -4%
mol: CCC(CC)C(=O)N1c2ccc(F)cc2CCC1C (stereo unspecified)
  A = 8%	B = u	C = -4%	D = 10%	E = -4%	F = 11%
mol: COc1ccccc1NC(=O)N1c2ccc(F)cc2CCC1C (stereo unspecified)
  A = 12%	B = -33%[12.7 µM]	C = -8%	D = -13%	E = 22µM*	F = u
mol: CC1CCc2cc(F)ccc2N1C(=O)CCl (stereo unspecified)
  A = -14%[46 µM]	B = 6%	C = u	D = -3%	E = 0.14µM*	F = 3%
mol: CC(C)c1ccc(C(C(=O)NC2CCCCC2)N(C(=O)c2ccccn2)c2cccnc2)cc1 (stereo unspecified)
  A = x	B = 17%	C = -1%	D = 4%	E = u	F = -5%
mol: CC1CC2C(C(O)C[C@]3(C)C2CC[C@]3(O)C(=O)CO)[C@]2(C)C=CC(=O)C=C12 (stereo partly specified)
  A = x	B = -47%[2.33 µM]	C = x	D = 2%	E = -1%	F = 2%
mol: Cc1cccc(/C=N/NC(=O)c2ccncc2)n1
  A = x	B = 33%	C = -3%	D = -8%	E = x	F = x
mol: CCOc1ccc(-c2nnc(SCC(=O)N3CCNC3=O)o2)cc1
  A = x	B = -2%[12.7 µM]	C = x	D = x	E = x	F = x
mol: N#C/C(C(=O)NCCc1ccccc1)=C1/N=C(NC(=O)c2cccs2)c2ccccc21
  A = -21%	B = u	C = -34%	D = 14%	E = 4%	F = -3%
mol: COCCCNC(=O)/C(C#N)=C1\N=C(NC(=O)c2cccs2)c2ccccc21
  A = x	B = u	C = -22%	D = 3%	E = 4µM*	F = 2%

# Fetched by compound from above (three):
# Short keys: A = LMNA splice mod; B = G9a block; C = miR-21 reporter; D = Sfp PPTase inh; E = ALDH1A1 inh; F = KDM4E inh
mol: CCN(CC)S(=O)(=O)c1ccc(N2CCOCC2)c(NC(=O)c2ccc(N3CCCC3=O)cc2)c1
  A = x	B = 50µM*	C = x	D = x	E = x	F = x
mol: CC1CCc2cc(F)ccc2N1C(=O)CCl (stereo unspecified)
  A = -14%[46 µM]	B = 6%	C = u	D = -3%	E = 0.14µM*	F = 3%
mol: O=C(Nc1nnc(SCCN2CCOCC2)s1)C1CC(=O)N(c2ccccc2)C1 (stereo unspecified)
  A = x	B = 45µM*	C = -6%	D = 7%	E = x	F = x

# (further entries)
# Short keys: A = LMNA splice mod; B = G9a block; C = miR-21 reporter; D = Sfp PPTase inh; E = ALDH1A1 inh; F = KDM4E inh
mol: CCOc1ccc2nc(CN3CCN(Cc4ccccc4OCC)C(CCO)C3)ccc2c1 (stereo unspecified)
  A = x	B = u	C = 18%	D = 12%	E = x	F = x
mol: COc1cccc(CN2CCN(Cc3ccc4c(NC(C)=O)cccc4n3)CC2CCO)c1 (stereo unspecified)
  A = 4%[46 µM]	B = 50µM*	C = -3%	D = -19%	E = u	F = u
mol: COc1ccc(CN2CCN(Cc3ccc4cc(F)ccc4n3)CC2CCO)c(C)c1C (stereo unspecified)
  A = x	B = 50µM*	C = 15%	D = 3%	E = x	F = x
mol: Cc1ccc(CN2CCN(Cc3ccc4cc(F)ccc4n3)CC2CCO)o1 (stereo unspecified)
  A = x	B = 56µM*	C = -6%	D = -30%	E = u	F = u
mol: CCOc1ccccc1CN1CCN(Cc2ccc3cc(F)ccc3n2)CC1CCO (stereo unspecified)
  A = x	B = 79µM*	C = 2%	D = 9%	E = x	F = x
mol: COc1cccc(CN2CCN(Cc3ccon3)CC2CCO)c1 (stereo unspecified)
  A = x	B = 4%	C = 0%	D = 7%	E = 13%	F = 18%
mol: COc1ccc(C2CC(=O)c3c([nH]c(C(=O)OC4CCCCCC4)c3C)C2)cc1OC (stereo unspecified)
  A = x	B = 6%[59 µM]	C = 19%	D = x	E = x	F = x
mol: CCOc1ccccc1NC(=O)c1nnn(CC(=O)Nc2ccccc2CC)c1N
  A = x	B = 6%[59 µM]	C = -11%	D = x	E = x	F = x
mol: CC(=O)N1CCN(c2nc(-c3ccco3)c3c(c2C#N)CC(C)(C)SC3)CC1
  A = 6%	B = -18%[59 µM]	C = 2%	D = 45µM*	E = u	F = u
mol: CC1(C)Cc2c(C#N)c(N3CCN(C(=O)c4ccco4)CC3)nc(-c3ccco3)c2CS1
  A = 0%	B = 10µM*	C = -6%	D = 20µM*	E = 2%	F = -1%
mol: C=CCN(c1ccccc1)S(=O)(=O)c1cccc(C(=O)Nc2ncccc2C)c1
  A = x	B = -9%	C = x	D = x	E = x	F = x
mol: Cc1ccccc1Cc1n[nH]c(=S)n1N
  A = -5%	B = 2.5µM*	C = 0%	D = -30%	E = u	F = -20%
mol: CC(Sc1nnc(CC(C)c2ccccc2)n1N)C(N)=O (stereo unspecified)
  A = x	B = 13%	C = -4%	D = 5%	E = x	F = x
mol: CC(Cc1n[nH]c(=S)n1N)c1ccccc1 (stereo unspecified)
  A = x	B = 7.9µM*	C = 3%	D = 56µM*	E = x	F = x
mol: Nn1c(Cc2ccc(F)cc2)n[nH]c1=S
  A = x	B = 3.5µM*	C = -4%	D = -29%	E = u	F = -6%
mol: Nn1c(Cc2ccccc2)n[nH]c1=S
  A = 1%[46 µM]	B = x	C = -16%	D = 9%	E = 7%	F = -1%
mol: O=C(NCCN1CCOCC1)C(=O)NCC1OCCCN1S(=O)(=O)c1cc(F)ccc1F (stereo unspecified)
  A = x	B = 75%	C = 0%	D = 13%	E = x	F = x
